In assay [1] the target is rat C1a calcitonin receptor (rat), P32214. The assay can be described thus: cell-based or functional assay.
In assay [2] the target is rat C1a calcitonin receptor (rat) (UniProt P32214). Put plainly: cell-based or functional assay.
Assay [3] shares this target. Put plainly: displacement of 125I-human calcitonin from C1a-HEK cell membranes. In general terms: Loss of bound radioactivity is the signal in a displacement assay; it reports binding, not function.
Assay [4] addresses amylin receptor (RNA membranes). The assay can be described thus: displacement of 125I-rat amylin from RNA membranes.

B1: Cmpd 173 (Acetyl-[K^18(mPEG40KD)]-Cmpd 2) (peptide)
peptide: CNTATCVLGRLSQELHKLQTYPRTNVGSNTY
modifications: here or on the partner: N-terminal acetyl; mPEG40KD on the side-chain amine of Lys 18 (Formula (I)/Cmpd 1 numbering; residue 17 of this chain); C-terminal amide
As for B1, the Calcitonin Function (Adenylate Cyclase), ED50 in assay [1] was 19 nM.

B2: Cmpd 156 (Acetyl-[K^21(mPEG40KD)]-Cmpd 2) (peptide)
peptide: CNTATCVLGRLSQELHRLQKYPRTNVGSNTY
modifications: N-terminal acetyl; mPEG40KD on the side-chain amine of Lys 21 (Formula (I)/Cmpd 1 numbering; residue 20 of this chain); C-terminal amide
In the case of B2, the Calcitonin Function (Adenylate Cyclase), ED50 in assay [2] came out at 2.2 nM. In assay [3], the IC50 – broadly, the concentration at which inhibition is half-maximal – amounted to 5.2 nM.

B3: Cmpd 171 (Acetyl-[K^23(mPEG40KD)]-Cmpd 2) (peptide)
peptide: CNTATCVLGRLSQELHRLQTYKRTNVGSNTY
modifications: here or on the partner: N-terminal acetyl; mPEG40KD on the side-chain amine of Lys 23 (Formula (I)/Cmpd 1 numbering; residue 22 of this chain); C-terminal amide
Take B3: the Calcitonin Function (Adenylate Cyclase), ED50 in assay [1] was 6.5 nM. This molecule displayed an IC50 in assay [4] of 11 nM.

B4: Cmpd 174 (Acetyl-[K24(mPEG40KD)]-Cmpd 2) (peptide)
peptide: CNTATCVLGRLSQELHRLQTYPKTNVGSNTY
modifications: here or on the partner: N-terminal acetyl; mPEG40KD on the side-chain amine of Lys 24 (Formula (I)/Cmpd 1 numbering; residue 23 of this chain); C-terminal amide
B4: in assay [1], the Calcitonin Function (Adenylate Cyclase), ED50 turned out to be 130 nM.

B5: Cmpd 170 (Acetyl-[K^22(mPEG40KD)]-Cmpd 2) (peptide)
peptide: CNTATCVLGRLSQELHRLQTKPRTNVGSNTY
modifications: here or on the partner: N-terminal acetyl; mPEG40KD on the side-chain amine of Lys 22 (Formula (I)/Cmpd 1 numbering; residue 21 of this chain); C-terminal amide
With B5, the Calcitonin Function (Adenylate Cyclase), ED50 in assay [1] worked out at 1.2 nM. In addition, the IC50 in assay [4] amounted to 15 nM.

B6: Cmpd 172 (Acetyl-[K^11(mPEG40KD)]-Cmpd 2) (peptide)
peptide: CNTATCVLGKLSQELHRLQTYPRTNVGSNTY
modifications: here or on the partner: N-terminal acetyl; mPEG40KD on the side-chain amine of Lys 11 (Formula (I)/Cmpd 1 numbering; residue 10 of this chain); C-terminal amide
With B6, the Calcitonin Function (Adenylate Cyclase), ED50 in assay [1] was more than 1000 nM.

The values are drawn from US20140249076A1, “AMYLIN-CALCITONIN CHIMERIC PEPTIDES CONJUGATED TO DURATION ENHANCING MOIETIES” (AMYLIN PHARMACEUTICALS, LLC, priority 2011, published 2014).
